# Test: Fluorescence properties of the new compounds (excitation and emission wavelengths)
# Assay type: physicochemical
# Conditions: free compound
# From the text: The excitation and emission wavelengths of the new compounds are described in Table 1. Optimal excitation wavelengths range from 247 to 433 nm and the corresponding emission wavelengths range from 392 to 505 nm. The quindoline derivatives with aminoproline backbone have the higher emission wavelengths. The phenylquinoline derivatives have the lower emission wavelengths.
Fluorescence Excitation (nm),Fluorescence emission (nm),Compound
374 nm,446 nm,"N-((1,3-dihydroxybutan-2-ylcarbamoyl)methyl)-10H-indolo[3,2-d]quinoline-11-carboxamide [Compound 2c]"
,446 nm,"CC(=O)N[C@@H](CCCNC(=O)CNC(=O)c1c2ccccc2nc2ccccc12)C(=O)N[C@@H](CCCNC(=O)CNC(=O)c1c2ccccc2nc2c1[nH]c1ccccc12)C(=O)N[C@@H](CCCNC(=O)CNC(=O)c1c2ccccc2nc2c1[nH]c1ccccc12)C(N)=O [Example 70, N^4-Acetyl-5-N-{2-(acridine-9-carboxamide)acetyl}ornithinyl-5-N-{2-(10H-indolo[3,2-b]quinoline-11-carboxamide)acetyl}ornithinyl-5-N-{2-(10H-indolo[3,2-b]quinoline-11-carboxamide)acetyl}ornithinamide]"

# — US20100129800A1, “POLYMERS AND THEIR USE AS FLUORESCENT LABELS” (priority 2007, published 2010)
